A short description of the series: Water solubility of flavoring agents and their flavor glucosides. Particulars: flavoring agent in the form of its flavor glucoside.

Take “5-methyl-2-(1-methylethyl)phenyl-O-β-D-glucopyranoside [Thymol glucoside]”: the “Glucoside water solubility” value stood at 2680 µg/mL.
The same measure for “endo-(1S)-1,7,7-trimethylbicyclo[2.2.1]heptan-2-yl-O-β-D-glucopyranoside [Borneol glucoside]”: 16400 µg/mL.

These data come from patent US20240008524A1, “CONSUMABLE” (Nicoventures Trading Limited, priority 2020, published 2024).
